IC50 data for 1 substance are collected here from PMC5684552, “A Molecular Basis for the Inhibition of Transient Receptor Potential Vanilloid Type 1 by Gomisin A” (Evidence-based Complementary and Alternative Medicine : eCAM, 2017).

By UniProt entry, the sequences of proteins in these tests, tags left out.
UniProt Q8NER1, whole entry: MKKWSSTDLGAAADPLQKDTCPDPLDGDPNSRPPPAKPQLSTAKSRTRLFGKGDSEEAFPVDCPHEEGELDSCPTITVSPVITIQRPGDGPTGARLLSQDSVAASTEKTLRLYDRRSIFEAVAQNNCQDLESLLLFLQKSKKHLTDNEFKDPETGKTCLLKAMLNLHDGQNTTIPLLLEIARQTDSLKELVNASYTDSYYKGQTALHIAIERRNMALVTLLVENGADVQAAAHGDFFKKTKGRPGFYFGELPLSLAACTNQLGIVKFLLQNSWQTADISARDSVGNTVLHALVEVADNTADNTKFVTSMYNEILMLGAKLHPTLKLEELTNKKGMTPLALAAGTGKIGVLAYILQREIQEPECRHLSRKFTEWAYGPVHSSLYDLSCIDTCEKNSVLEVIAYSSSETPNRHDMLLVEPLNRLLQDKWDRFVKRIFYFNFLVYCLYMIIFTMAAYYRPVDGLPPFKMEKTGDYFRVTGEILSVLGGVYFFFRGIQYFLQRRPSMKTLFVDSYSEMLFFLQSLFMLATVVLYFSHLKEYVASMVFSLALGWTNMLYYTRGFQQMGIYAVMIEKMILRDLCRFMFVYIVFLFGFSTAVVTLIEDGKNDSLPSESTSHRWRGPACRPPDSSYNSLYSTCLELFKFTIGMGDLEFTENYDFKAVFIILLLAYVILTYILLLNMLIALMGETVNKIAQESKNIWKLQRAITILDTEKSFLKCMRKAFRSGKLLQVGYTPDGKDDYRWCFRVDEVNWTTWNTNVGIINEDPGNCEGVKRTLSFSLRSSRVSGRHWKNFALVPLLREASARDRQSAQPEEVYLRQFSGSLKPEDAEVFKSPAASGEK

This test deals with human TRPV1 receptor channel (Homo sapiens, UniProt Q8NER1). In words: Two-electrode voltage clamp of capsaicin-induced current in Xenopus oocytes expressing wild type human TRPV1. Type of test: cell-based. The following applies: capsaicin (1 μM)-stimulated inward current, holding potential −80 mV. For orientation: Two-electrode voltage clamp holds a large cell at a set potential and records current.

What is called IC50 is the point on the concentration scale where inhibition reaches its midpoint. A high value points to a need for much substance.

Consider gomisin A, for which the IC50 was found to be 62.1 ± 3.7 µM.
